Test results taken from ChEMBL document CHEMBL5579859, “Discovery of novel indazole derivatives as second-generation TRK inhibitors” (Eur J Med Chem, 2024).

By UniProt entry, the sequences of proteins in these tests, tags left out. Where a name states a change or a piece, a line headed by the entry shows the natural chain unless it says otherwise.
UniProt P51451: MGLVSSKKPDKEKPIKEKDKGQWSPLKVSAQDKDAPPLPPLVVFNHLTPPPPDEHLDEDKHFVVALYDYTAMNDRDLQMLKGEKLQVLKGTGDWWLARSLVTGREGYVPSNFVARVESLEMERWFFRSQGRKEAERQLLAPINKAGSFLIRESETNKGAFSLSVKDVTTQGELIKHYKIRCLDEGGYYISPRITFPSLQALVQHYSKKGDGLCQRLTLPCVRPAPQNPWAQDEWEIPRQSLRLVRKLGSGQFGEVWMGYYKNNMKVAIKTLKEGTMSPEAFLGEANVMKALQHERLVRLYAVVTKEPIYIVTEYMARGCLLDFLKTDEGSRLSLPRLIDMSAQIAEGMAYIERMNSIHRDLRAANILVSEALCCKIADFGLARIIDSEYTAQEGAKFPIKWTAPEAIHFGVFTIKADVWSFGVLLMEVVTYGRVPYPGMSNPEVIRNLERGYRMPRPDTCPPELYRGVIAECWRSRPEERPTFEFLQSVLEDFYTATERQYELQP
UniProt P30291: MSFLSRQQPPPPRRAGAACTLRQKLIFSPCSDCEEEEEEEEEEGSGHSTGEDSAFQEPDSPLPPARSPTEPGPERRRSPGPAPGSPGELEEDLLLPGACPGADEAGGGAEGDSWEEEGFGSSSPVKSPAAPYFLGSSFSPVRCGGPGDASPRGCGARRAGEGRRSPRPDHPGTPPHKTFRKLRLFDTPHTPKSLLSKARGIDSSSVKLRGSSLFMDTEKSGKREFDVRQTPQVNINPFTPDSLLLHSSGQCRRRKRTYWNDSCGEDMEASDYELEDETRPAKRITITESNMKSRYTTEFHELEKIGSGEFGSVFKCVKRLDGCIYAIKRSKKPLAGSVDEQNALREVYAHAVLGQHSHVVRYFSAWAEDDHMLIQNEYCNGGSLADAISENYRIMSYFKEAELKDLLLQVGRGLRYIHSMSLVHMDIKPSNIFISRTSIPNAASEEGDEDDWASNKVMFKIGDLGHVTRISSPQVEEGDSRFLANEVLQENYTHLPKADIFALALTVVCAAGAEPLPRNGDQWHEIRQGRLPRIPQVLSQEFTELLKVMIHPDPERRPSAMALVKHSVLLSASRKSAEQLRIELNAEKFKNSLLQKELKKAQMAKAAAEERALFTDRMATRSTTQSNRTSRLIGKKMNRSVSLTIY
UniProt P16234: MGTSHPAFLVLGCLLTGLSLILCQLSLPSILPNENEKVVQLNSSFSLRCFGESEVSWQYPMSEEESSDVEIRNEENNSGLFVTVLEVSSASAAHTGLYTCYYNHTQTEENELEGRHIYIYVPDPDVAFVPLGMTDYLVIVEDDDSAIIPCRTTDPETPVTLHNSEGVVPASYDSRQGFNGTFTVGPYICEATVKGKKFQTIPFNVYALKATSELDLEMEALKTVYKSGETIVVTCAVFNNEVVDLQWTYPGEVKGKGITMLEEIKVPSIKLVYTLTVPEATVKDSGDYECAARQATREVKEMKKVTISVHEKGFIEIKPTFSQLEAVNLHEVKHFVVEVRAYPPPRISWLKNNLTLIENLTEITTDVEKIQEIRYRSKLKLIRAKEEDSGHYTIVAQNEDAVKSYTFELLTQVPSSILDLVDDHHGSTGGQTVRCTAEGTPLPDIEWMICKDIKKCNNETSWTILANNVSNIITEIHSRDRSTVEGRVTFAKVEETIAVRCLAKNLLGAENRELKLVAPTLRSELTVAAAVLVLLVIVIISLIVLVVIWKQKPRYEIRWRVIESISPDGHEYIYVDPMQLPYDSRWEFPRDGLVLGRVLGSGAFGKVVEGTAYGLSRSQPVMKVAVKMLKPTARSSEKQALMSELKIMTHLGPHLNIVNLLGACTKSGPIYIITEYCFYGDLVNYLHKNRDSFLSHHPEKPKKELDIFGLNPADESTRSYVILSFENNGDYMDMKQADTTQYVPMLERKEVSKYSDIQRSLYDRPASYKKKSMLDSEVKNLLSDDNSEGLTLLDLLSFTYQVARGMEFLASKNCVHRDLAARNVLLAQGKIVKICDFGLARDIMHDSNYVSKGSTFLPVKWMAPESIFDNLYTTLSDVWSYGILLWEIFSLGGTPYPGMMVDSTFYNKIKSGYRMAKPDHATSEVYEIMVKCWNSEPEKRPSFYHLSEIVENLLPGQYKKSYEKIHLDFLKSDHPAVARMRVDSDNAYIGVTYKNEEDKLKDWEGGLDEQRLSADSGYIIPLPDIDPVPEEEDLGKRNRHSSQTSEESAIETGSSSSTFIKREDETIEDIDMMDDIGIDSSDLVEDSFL
UniProt Q86Y07: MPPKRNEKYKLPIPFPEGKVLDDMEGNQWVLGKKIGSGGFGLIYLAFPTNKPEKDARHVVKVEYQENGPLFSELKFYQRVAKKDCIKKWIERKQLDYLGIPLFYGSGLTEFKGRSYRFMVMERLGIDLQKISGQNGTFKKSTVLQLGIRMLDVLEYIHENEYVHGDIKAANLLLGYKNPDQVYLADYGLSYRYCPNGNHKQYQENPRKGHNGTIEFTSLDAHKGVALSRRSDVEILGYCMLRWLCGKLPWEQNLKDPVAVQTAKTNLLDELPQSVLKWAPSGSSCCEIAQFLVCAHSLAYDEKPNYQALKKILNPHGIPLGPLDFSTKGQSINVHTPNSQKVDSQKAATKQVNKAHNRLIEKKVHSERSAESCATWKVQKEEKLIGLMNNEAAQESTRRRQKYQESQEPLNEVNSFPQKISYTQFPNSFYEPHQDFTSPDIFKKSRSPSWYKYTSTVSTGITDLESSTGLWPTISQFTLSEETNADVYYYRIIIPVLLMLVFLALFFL
UniProt Q9UHD2: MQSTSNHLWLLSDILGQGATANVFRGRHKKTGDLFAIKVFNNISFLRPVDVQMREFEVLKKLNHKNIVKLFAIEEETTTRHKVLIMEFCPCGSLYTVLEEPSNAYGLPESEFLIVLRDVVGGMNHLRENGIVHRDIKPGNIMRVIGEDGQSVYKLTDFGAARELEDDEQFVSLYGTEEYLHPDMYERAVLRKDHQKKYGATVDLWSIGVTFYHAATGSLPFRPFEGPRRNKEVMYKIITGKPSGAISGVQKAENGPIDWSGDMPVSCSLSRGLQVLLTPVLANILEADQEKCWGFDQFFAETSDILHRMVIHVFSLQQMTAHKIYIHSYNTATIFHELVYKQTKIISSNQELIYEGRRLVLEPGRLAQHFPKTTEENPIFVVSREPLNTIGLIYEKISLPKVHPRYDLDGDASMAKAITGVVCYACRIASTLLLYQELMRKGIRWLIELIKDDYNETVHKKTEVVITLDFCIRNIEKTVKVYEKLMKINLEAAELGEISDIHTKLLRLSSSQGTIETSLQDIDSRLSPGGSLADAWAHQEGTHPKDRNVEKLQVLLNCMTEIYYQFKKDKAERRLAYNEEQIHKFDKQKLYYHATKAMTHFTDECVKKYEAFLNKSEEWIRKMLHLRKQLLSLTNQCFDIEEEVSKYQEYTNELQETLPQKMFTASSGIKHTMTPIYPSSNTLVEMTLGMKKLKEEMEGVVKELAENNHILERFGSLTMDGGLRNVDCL
UniProt P00519, whole entry: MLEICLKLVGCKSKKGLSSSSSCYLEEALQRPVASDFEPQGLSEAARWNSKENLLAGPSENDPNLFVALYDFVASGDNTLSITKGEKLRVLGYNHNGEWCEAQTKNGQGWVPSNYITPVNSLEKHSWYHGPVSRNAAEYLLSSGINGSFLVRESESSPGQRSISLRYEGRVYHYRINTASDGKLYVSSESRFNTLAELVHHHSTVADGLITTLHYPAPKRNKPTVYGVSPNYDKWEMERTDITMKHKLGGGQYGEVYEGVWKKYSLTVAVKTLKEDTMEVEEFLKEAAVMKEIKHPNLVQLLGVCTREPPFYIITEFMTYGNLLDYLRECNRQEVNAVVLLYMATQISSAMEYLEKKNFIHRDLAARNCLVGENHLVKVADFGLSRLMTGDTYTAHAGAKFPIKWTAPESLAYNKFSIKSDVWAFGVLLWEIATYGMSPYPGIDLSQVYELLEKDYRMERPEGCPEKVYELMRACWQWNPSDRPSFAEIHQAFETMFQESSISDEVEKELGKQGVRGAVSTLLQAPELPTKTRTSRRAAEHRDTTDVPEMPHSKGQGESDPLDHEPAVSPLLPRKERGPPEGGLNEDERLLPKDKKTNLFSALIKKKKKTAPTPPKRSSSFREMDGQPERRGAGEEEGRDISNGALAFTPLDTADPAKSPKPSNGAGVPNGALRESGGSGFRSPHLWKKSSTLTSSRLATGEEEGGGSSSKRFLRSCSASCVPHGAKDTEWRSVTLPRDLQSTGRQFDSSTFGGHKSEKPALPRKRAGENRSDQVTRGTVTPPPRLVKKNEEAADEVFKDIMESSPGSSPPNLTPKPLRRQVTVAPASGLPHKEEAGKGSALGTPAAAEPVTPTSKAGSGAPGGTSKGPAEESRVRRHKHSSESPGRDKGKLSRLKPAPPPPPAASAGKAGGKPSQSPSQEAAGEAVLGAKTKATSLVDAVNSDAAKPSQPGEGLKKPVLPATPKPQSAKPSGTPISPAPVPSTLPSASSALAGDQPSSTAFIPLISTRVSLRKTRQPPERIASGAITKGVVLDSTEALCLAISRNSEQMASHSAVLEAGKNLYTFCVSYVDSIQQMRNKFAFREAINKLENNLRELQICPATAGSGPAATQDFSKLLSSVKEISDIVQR
UniProt P53350, whole entry: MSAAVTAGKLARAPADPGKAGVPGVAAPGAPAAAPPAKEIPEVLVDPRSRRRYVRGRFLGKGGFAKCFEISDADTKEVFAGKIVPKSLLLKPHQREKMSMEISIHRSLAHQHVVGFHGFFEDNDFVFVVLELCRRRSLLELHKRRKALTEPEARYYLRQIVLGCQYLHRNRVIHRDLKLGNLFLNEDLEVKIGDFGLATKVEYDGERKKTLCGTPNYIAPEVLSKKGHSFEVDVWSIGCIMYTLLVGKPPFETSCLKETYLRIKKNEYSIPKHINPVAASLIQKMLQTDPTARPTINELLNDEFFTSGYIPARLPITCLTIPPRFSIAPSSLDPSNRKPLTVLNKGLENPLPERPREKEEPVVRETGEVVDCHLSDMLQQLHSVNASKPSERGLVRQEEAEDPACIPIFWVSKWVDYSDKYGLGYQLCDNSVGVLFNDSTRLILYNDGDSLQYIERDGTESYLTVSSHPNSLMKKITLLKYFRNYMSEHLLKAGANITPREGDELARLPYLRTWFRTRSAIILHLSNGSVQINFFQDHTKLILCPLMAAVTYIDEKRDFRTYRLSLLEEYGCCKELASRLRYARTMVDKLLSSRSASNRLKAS
UniProt Q00535, whole entry, looked up: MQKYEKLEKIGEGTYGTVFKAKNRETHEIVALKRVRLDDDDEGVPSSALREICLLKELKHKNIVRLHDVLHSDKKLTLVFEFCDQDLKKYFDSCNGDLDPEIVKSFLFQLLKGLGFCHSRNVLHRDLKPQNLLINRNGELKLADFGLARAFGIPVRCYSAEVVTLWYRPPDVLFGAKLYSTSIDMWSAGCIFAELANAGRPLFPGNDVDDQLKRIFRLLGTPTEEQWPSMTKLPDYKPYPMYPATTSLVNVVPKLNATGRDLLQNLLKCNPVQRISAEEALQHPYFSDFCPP
UniProt Q76MJ5: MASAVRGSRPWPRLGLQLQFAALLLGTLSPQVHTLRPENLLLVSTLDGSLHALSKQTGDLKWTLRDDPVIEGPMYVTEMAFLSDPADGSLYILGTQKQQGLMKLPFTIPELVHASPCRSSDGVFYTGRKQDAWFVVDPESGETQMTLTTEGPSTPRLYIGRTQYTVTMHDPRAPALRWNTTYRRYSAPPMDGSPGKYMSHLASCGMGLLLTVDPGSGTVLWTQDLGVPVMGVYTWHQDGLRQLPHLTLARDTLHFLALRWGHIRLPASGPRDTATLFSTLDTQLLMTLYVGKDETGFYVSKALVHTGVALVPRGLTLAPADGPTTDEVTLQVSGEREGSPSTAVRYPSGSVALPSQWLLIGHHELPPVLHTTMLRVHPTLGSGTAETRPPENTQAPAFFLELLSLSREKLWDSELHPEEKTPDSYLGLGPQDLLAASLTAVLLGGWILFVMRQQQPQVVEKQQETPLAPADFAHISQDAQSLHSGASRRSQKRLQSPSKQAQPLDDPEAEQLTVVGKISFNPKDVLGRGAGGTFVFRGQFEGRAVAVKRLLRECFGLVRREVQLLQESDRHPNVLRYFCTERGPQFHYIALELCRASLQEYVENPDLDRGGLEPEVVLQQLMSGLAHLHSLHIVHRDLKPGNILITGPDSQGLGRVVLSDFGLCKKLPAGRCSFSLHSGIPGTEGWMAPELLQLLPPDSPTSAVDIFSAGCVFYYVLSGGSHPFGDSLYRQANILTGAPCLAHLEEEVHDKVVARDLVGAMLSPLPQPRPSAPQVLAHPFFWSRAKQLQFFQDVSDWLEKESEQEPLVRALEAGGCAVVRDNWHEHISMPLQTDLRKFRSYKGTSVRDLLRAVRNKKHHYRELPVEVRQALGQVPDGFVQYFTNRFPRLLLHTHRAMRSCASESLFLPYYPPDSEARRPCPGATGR

Assays:
[1] = target: Tyrosine-protein kinase Blk (Homo sapiens) (UniProt P51451); test: Inhibition of BLK (unknown origin) at 1 uM by SelectScreen assay relative to control
[2] = target: Serine/threonine-protein kinase PAK 4 (Homo sapiens) (UniProt O96013); test: Inhibition of PAK4 (unknown origin) at 1 uM by SelectScreen assay relative to control
[3] = target: Receptor-type tyrosine-protein kinase FLT3 (Homo sapiens) (UniProt P36888); test: Inhibition of FLT3 (unknown origin) at 1 uM by SelectScreen assay relative to control
[4] = target: Tyrosine-protein kinase BTK (Homo sapiens) (UniProt Q06187); test: Inhibition of BTK (unknown origin) at 1 uM by SelectScreen assay relative to control
[5] = target: Serine/threonine-protein kinase PLK4 (Homo sapiens) (UniProt O00444); test: Inhibition of PLK4 (unknown origin) at 1 uM by SelectScreen assay relative to control
[6] = target: Serine/threonine-protein kinase SIK1 (Homo sapiens) (UniProt P57059); test: Inhibition of SIK1 (unknown origin) at 1 uM by SelectScreen assay relative to control
[7] = target: RAC-alpha serine/threonine-protein kinase (Homo sapiens) (UniProt P31749); test: Inhibition of PKB-alpha (unknown origin) at 1 uM by SelectScreen assay relative to control
[8] = target: Wee1-like protein kinase (Homo sapiens) (UniProt P30291); test: Inhibition of WEE1 (unknown origin) at 1 uM by SelectScreen assay relative to control
[9] = target: Serine/threonine-protein kinase Chk2 (Homo sapiens) (UniProt O96017); test: Inhibition of CHK2 (unknown origin) at 1 uM by SelectScreen assay relative to control
[10] = target: Dual specificity protein kinase CLK2 (Homo sapiens) (UniProt P49760); test: Inhibition of CLK2 (unknown origin) at 1 uM by SelectScreen assay relative to control
[11] = target: Aurora kinase A (Homo sapiens) (UniProt O14965); test: Inhibition of Aurora A (unknown origin) at 1 uM by SelectScreen assay relative to control
[12] = target: Tyrosine-protein kinase receptor UFO (Homo sapiens) (UniProt P30530); test: Inhibition of AXL (unknown origin) at 1 uM by SelectScreen assay relative to control
[13] = target: TRAF2 and NCK-interacting protein kinase (Homo sapiens) (UniProt Q9UKE5); test: Inhibition of TNIK (unknown origin) at 1 uM by SelectScreen assay relative to control
[14] = target: Mitogen-activated protein kinase 3 (Homo sapiens) (UniProt P27361); test: Inhibition of ERK1 (unknown origin) at 1 uM by SelectScreen assay relative to control
[15] = target: Angiopoietin-1 receptor (Homo sapiens) (UniProt Q02763); test: Inhibition of Tie2 (unknown origin) at 1 uM by SelectScreen assay relative to control
[16] = target: ALK tyrosine kinase receptor (Homo sapiens) (UniProt Q9UM73); test: Inhibition of ALK (unknown origin) at 1 uM by SelectScreen assay relative to control
[17] = target: Platelet-derived growth factor receptor alpha (Homo sapiens) (UniProt P16234); test: Inhibition of PDGFR-alpha (unknown origin) at 1 uM by SelectScreen assay relative to control
[18] = target: Epidermal growth factor receptor (Homo sapiens) (UniProt P00533); test: Inhibition of EGFR (unknown origin) at 1 uM by SelectScreen assay relative to control
[19] = target: Serine/threonine-protein kinase VRK2 (Homo sapiens) (UniProt Q86Y07); test: Inhibition of VRK2 (unknown origin) at 1 uM by SelectScreen assay relative to control
[20] = target: Rho-associated protein kinase 1 (Homo sapiens) (UniProt Q13464); test: Inhibition of ROCK1 (unknown origin) at 1 uM by SelectScreen assay relative to control
[21] = target: Serine/threonine-protein kinase TBK1 (Homo sapiens) (UniProt Q9UHD2); test: Inhibition of TBK1 (unknown origin) at 1 uM by SelectScreen assay relative to control
[22] = target: Leucine-rich repeat serine/threonine-protein kinase 2 (Homo sapiens) (UniProt Q5S007); test: Inhibition of LRRK2 (unknown origin) at 1 uM by SelectScreen assay relative to control
[23] = target: Serine/threonine-protein kinase B-raf (Homo sapiens) (UniProt P15056); test: Inhibition of BRAF (unknown origin) at 1 uM by SelectScreen assay relative to control
[24] = target: Tyrosine-protein kinase ABL1 (Homo sapiens) (UniProt P00519); test: Inhibition of ABL1 (unknown origin) at 1 uM by SelectScreen assay relative to control
[25] = target: Tyrosine-protein kinase Fyn (Homo sapiens) (UniProt P06241); test: Inhibition of FYN (unknown origin) at 1 uM by SelectScreen assay relative to control
[26] = target: Tyrosine-protein kinase SYK (Homo sapiens) (UniProt P43405); test: Inhibition of SYK (unknown origin) at 1 uM by SelectScreen assay relative to control
[27] = target: Inhibitor of nuclear factor kappa-B kinase subunit beta (Homo sapiens) (UniProt O14920); test: Inhibition of IKK-beta (unknown origin) at 1 uM by SelectScreen assay relative to control
[28] = target: Serine/threonine-protein kinase pim-1 (Homo sapiens) (UniProt P11309); test: Inhibition of PIM1 (unknown origin) at 1 uM by SelectScreen assay relative to control
[29] = target: Serine/threonine-protein kinase mTOR (Homo sapiens) (UniProt P42345); test: Inhibition of mTOR (unknown origin) at 1 uM by SelectScreen assay relative to control
[30] = target: Tyrosine-protein kinase JAK1 (Homo sapiens) (UniProt P23458); test: Inhibition of JAK1 (unknown origin) at 1 uM by SelectScreen assay relative to control
[31] = target: Serine/threonine-protein kinase PLK1 (Homo sapiens) (UniProt P53350); test: Inhibition of PLK1 (unknown origin) at 1 uM by SelectScreen assay relative to control
[32] = target: Cyclin-dependent kinase 5 (Homo sapiens) (UniProt Q00535); test: Inhibition of CDK5 (unknown origin) at 1 uM by SelectScreen assay relative to control
[33] = target: Tyrosine-protein kinase CSK (Homo sapiens) (UniProt P41240); test: Inhibition of CSK (unknown origin) at 1 uM by SelectScreen assay relative to control
[34] = target: Serine/threonine-protein kinase/endoribonuclease IRE2 (Homo sapiens) (UniProt Q76MJ5); test: Inhibition of ERN2 (unknown origin) at 1 uM by SelectScreen assay relative to control

SMILES: C[C@@H](Nc1ccc2[nH]nc(-n3cncn3)c2c1)c1cc(F)ccc1OCC(F)F
- inhibition [1]: 78%
- inhibition [2]: 17%
- inhibition [3]: 78%
- inhibition [4]: 79%
- inhibition [5]: 98%
- inhibition [6]: 20%
- inhibition [7]: 6%
- inhibition [8]: 8%
- inhibition [9]: 6%
- inhibition [10]: 64%
- inhibition [11]: 78%
- inhibition [12]: 79%
- inhibition [13]: 53%
- inhibition [14]: 6%
- inhibition [15]: 49%
- inhibition [16]: 101%
- inhibition [17]: -1%
- inhibition [18]: 3%
- inhibition [19]: 33%
- inhibition [20]: 52%
- inhibition [21]: 9%
- inhibition [22]: 72%
- inhibition [23]: 6%
- inhibition [24]: 37%
- inhibition [25]: 70%
- inhibition [26]: 20%
- inhibition [27]: 11%
- inhibition [28]: 5%
- inhibition [29]: 3%
- inhibition [30]: 98%
- inhibition [31]: 12%
- inhibition [32]: 11%
- inhibition [33]: 19%
- inhibition [34]: 6%
